How the values were obtained:
Test in all cases: ITC; 100 μM peptide titrated into 10 μM mSPSB protein; 22 °C; 20 mM Tris, 150 mM sodium chloride, 2.5 mM calcium chloride, pH 8.0; single binding site model
Conditions in all cases: both partners purified
mSPSB2(12–224) = target: T1, mSPSB2(12–224) (murine, UniProt O88838 12-224)
T1 construct: murine SPSB2 (SSB-2), residues 12-224: lacks the first 11 residues and the C-terminal SOCS box; Uniformly 15N-labelled in one NMR experiment; also called mSPSB2ΔSB; 15N-mSPSB2(12–224); source: E. coli Origami B(DE3) pLysS, GST fusion, purified (glutathione-Sepharose, thrombin cleavage, gel filtration)
T1 sequence (looked up): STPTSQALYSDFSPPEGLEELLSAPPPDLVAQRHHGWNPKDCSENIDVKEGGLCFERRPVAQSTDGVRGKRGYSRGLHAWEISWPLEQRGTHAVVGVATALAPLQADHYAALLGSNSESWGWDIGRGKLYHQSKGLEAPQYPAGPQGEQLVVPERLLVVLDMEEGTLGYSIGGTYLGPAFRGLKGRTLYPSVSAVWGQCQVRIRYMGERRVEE

Amino acid sequences for entries named in this document (tags omitted).
mSPSB2 + elonginBC, UniProt P62869, whole entry, chain 2 of 3: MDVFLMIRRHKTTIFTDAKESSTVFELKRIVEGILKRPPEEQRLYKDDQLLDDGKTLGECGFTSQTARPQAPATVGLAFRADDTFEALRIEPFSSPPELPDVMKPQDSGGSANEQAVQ

mSPSB2(12–224)[T198A] = target: T2, mSPSB2(12–224)[T198A] (murine, UniProt O88838 12-224, T198A)
T2 construct: murine SPSB2, residues 12-224, T198A; also called [T198A] mutant; source: E. coli Origami B(DE3) pLysS, GST fusion, purified (glutathione-Sepharose, thrombin cleavage, gel filtration)
T2 sequence (looked up): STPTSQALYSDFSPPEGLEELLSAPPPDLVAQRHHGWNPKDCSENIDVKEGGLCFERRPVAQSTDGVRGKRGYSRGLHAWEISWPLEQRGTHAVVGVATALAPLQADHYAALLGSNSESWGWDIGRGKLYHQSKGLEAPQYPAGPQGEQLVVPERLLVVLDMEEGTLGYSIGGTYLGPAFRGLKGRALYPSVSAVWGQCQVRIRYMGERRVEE

mSPSB2 + elonginBC = mSPSB2 + elonginBC (murine, UniProt O88838 1-264; P62869 1-118; P83940 17-112)

B1: hPar-4(59–77) (peptide)
peptide: GTPAAAAANELNNNLPGGA
notes: human prostate apoptosis response protein-4 (hPar-4), residues 59-77; Uniformly 15N-labelled in one NMR experiment; also called human prostate apoptosis response protein-4 residues 59–77; 15N-hPar-4(59–77); source: recombinant; cloning, expression and purification described in the Supplementary Data
Kd (mSPSB2(12–224)): 4.6 µM | Kd (mSPSB2(12–224)[T198A]): 3 µM | Kd (mSPSB2 + elonginBC): 4.3 µM
